Measured values as given in patent US9375965B2, “Marking compound” (priority 2011, dated 2016).

Settings: crystals in water

Solubility in water: readily dissolve in water
Substance: tetra-triethanolammonium octamolybdate [TEA-OM]
